Measured values taken from ChEMBL document CHEMBL1140811, “Inhibition of dipeptidyl peptidase-IV (DPP-IV) by atorvastatin” (Bioorg Med Chem Lett, 2008).

By UniProt entry, the sequences of proteins in these tests, tags left out. Where a name states a change or a piece, a line headed by the entry shows the natural chain unless it says otherwise.
UniProt P22411: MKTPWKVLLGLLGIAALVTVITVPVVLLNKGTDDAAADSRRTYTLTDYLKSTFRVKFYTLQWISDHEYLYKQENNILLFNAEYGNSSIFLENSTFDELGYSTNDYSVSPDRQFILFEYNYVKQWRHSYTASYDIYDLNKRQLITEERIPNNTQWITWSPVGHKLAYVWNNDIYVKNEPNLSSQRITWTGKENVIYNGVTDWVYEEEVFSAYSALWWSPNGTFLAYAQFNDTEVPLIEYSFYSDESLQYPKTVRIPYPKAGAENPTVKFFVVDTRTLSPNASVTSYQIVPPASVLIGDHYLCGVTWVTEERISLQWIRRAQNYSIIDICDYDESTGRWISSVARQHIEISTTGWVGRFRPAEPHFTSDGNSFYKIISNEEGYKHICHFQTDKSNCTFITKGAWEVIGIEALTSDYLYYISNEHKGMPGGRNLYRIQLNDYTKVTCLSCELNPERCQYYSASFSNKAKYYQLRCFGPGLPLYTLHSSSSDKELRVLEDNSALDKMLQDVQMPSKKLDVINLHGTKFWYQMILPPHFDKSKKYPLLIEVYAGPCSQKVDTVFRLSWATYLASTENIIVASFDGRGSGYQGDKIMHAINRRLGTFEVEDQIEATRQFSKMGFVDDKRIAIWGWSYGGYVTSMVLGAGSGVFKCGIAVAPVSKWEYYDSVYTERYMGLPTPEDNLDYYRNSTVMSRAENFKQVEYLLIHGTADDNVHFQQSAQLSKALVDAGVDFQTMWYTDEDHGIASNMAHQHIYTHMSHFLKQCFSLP

Biological target: Dipeptidyl peptidase 4 (Sus scrofa, UniProt P22411)
Test: Inhibition of pig DPP4

IC50: 14.4 µM
SMILES: CC[C@H](C)[C@H](N)C(=O)N1CCC[C@H]1C(=O)N[C@H](C(=O)O)[C@@H](C)CC [DIPROTIN A]
